# Key:
# [1] = biological target: α-β-catenin heterodimer (monomeric His(6x) tagged mouse αE-catenin on GST-tagged human β-catenin) (mouse | human) (UniProt P26231); experiment: ultrafast force-clamp spectroscopy (optical tweezers); single α-β-catenin heterodimer: β-catenin 80 μg/ml on the nitrocellulose-coated silica bead, then αE-catenin 4 μg/ml for 5 min; F-actin dumbbell under constant force, one dumbbell; 20 mM MOPS pH 7.2, 50 mM KCl, 1 mM MgCl2, 0.1 mM EGTA, 20 mM DTT
# [2] = biological target: αE-catenin homodimer (mouse, full length, His(6x) tagged) (mouse) (UniProt P26231); experiment: ultrafast force-clamp spectroscopy (optical tweezers); single α-catenin homodimer (αE-catenin 4 μg/ml, no β-catenin) bound non-specifically to a nitrocellulose-coated silica bead on the coverslip; biotinylated rhodamine-phalloidin F-actin (1 nM) suspended between two trapped neutravidin …; constant force up to ± 17 pN, one dumbbell; 20 mM MOPS pH 7.2, 50 mM KCl, 1 mM MgCl2, 0.1 mM EGTA, 20 mM DTT
substance,measurement,setting,value
"F-actin (biotinylated, rhodamine-phalloidin labelled actin filament) (from UniProt P68135 1-377) (natural protein)",bond lifetime at F > 7 pN,[1],< 1 ms
same,"unloaded bond lifetime τ0+ (Bell slip-bond fit, positive force)",[1],6.1 ms
same,"unloaded bond lifetime τ0- (Bell slip-bond fit, negative force)",[1],16 ms
"F-actin (biotinylated, rhodamine-phalloidin labelled actin filament) (from UniProt P68135 1-377) (natural protein; other documents disagree on this pair)",bond lifetime at 8.1 pN,[2],145 ms
same,bond lifetime at 11.5 pN,[2],9.5 ms
same,bond lifetime at 13.8 pN,[2],61 ms
same,bond lifetime at −4.3 pN,[2],1.25 ms
same,bond lifetime at −7.7 pN,[2],20.5 ms
same,bond lifetime at −8.6 pN,[2],9 ms

# From publication PMC8894357 (2022)
